Only a part is listed here, and it is no random draw. Entries with a potency or affinity are not part of this list. The source made the active and inactive calls. The rule behind the calls is not given here.

Sequences of proteins named here, by UniProt entry; tags and fusion partners are left off.
UniProt P11142, whole entry: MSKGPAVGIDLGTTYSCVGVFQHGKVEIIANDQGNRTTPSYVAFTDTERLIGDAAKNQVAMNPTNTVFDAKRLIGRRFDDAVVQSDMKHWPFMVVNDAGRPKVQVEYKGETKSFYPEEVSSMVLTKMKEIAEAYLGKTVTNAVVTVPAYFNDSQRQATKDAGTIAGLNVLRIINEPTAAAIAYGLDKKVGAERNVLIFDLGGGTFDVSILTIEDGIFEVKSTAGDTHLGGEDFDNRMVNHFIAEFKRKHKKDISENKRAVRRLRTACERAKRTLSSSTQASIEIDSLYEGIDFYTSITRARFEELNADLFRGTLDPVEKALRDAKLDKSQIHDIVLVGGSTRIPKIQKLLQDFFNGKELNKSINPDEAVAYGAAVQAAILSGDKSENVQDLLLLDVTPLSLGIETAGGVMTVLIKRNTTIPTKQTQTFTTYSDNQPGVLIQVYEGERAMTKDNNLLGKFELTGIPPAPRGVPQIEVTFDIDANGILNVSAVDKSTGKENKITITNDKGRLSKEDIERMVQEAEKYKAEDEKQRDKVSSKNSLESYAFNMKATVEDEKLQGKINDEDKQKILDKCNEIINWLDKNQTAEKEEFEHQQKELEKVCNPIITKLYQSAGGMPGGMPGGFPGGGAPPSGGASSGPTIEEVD

For the experiment, the target named is Heat shock cognate 71 kDa protein (Homo sapiens) (UniProt P11142). As to the kind of experiment: small molecules displacing fluorescent ligand from Hsc70 – biochemical, fluorescence polarization, primary screen (AID 568). Conditions: mP, at 20 µM, stronger effect = higher value. In general terms: Polarisation of emitted light reports the rotation of a fluorescent probe.
Take `N/C(=N\O)c1c(N)no[n+]1[O-]`: the displacement is inactive: -0.7%. Under `c1ccc(CN2CCC(Nc3ccccc3)CC2)cc1` stands inactive: -3.5%. For the molecule `Fc1ccccc1NC1CCN(Cc2ccccc2)CC1`, the displacement is inactive: 0.8%. As for `CCC(CO)(C(=O)OC1CN2CCC1CC2)c1ccccc1` (stereo not given), the figure is inactive: -0.7%. Under `CCOc1ncccc1C(=O)NCC1(N2CCOCC2)CCCCC1` stands inactive: -7.9%; under `O=C(NCC1(N2CCOCC2)CCCCC1)c1cc2ccccc2o1`, inactive: 5.5%. Under `O=C(OC1CN2CCC1CC2)C1c2ccccc2Oc2ccccc21` (stereo not given) stands inactive: -4.6%; under `COc1ccc(NC2CCN(CCc3ccccc3)CC2)c(OC)c1`, inactive: -4.7%; under `O=C(NCC1(N2CCOCC2)CCCCC1)c1cc(=O)[nH]c2ccccc12`, inactive: 1.6%. For the molecule `N#CC1(Nc2ccccc2)CCN(CCc2ccccc2)CC1`, the displacement was inactive: 2.3%.

The values above are taken from PubChem BioAssay AID568 (Sanford-Burnham Center for Chemical Genomics, 2006).
